According to ChEMBL document CHEMBL5233265, “Recent advances in the design and development of formyl peptide receptor 2 (FPR2/ALX) agonists as pro-resolving agents with diverse therapeutic potential” (Eur J Med Chem, 2021):

Tests used:
[1] = target: T1, N-formyl peptide receptor 2 (Homo sapiens) (UniProt P25090); assay: Agonist activity at human FPR2 expressed in HEK cells assessed as maximal calcium flux incubated for 40 mins by Fluo-4 staining based FLIPR assay relative to control; format: cell-based
T1 sequence (whole entry): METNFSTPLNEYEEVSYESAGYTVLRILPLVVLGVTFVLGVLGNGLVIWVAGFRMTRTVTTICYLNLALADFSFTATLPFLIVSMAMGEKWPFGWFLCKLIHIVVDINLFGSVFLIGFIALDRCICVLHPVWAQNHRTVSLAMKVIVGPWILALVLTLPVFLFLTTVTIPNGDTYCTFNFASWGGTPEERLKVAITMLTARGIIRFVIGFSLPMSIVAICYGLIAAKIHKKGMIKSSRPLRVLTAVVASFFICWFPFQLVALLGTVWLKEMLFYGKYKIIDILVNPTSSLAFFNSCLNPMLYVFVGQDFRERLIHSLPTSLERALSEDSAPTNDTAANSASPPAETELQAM

[2] = target: T2, fMet-Leu-Phe receptor (Homo sapiens) (UniProt P21462); assay: Agonist activity at human FPR1 transfected in HL-60 cells assessed as maximal intracellular calcium flux incubated for 30 mins by Fluo-4 AM dye based fluorometer analysis relative to control; format: cell-based; conditions: filed as agonist
T2 sequence (whole entry): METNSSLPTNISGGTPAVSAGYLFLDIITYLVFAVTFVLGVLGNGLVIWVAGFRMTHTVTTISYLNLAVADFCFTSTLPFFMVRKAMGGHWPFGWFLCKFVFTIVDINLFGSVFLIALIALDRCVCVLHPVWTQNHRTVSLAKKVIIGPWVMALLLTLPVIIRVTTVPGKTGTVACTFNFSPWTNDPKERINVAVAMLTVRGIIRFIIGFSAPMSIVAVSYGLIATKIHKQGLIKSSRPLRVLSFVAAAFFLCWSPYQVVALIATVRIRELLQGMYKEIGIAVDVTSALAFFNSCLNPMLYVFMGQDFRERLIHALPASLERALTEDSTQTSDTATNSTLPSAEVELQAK

| Emax [1] | Emax [2] | Structure (SMILES) |
| --- | --- | --- |
| 1% | – | CC(C)C[C@H](NC(=O)Nc1ccc(Br)cc1F)C(=O)NCC(=O)O |
| – | 120% | COc1ccc(NC(=O)N[C@@H](Cc2ccc(C#N)cc2)C(=O)NCC2(c3ccc(O)cc3)CC2)cc1 |
| – | 100% | COc1ccc(NC(=O)N[C@@H](Cc2ccc(C#N)cc2)C(=O)NCC2(c3cccc(O)c3)CC2)cc1 |
